Values quoted from earlier work as cited in patent US5081114A, “Steroids” (Roussel Uclaf, priority 1989, dated 1992).

Test system: Aromatase
Conditions: prior art; attacks enzymatic processes other than androgens to estrogens; cited from earlier work

## CCC1(c2ccc(N)cc2)CCC(=O)NC1=O (racemic) [Aminogluthetimide]
  specificity to Aromatase: not being specific to Aromatase
